Assay results from patent US7452908B2, “Amide derivatives” (Banyu Pharmaceutical Co., Ltd., priority 1999, dated 2008).

Amino acid sequences for entries named in this document (tags omitted). A change or cut given only in a name is not applied to a line headed by its entry.
UniProt P08482: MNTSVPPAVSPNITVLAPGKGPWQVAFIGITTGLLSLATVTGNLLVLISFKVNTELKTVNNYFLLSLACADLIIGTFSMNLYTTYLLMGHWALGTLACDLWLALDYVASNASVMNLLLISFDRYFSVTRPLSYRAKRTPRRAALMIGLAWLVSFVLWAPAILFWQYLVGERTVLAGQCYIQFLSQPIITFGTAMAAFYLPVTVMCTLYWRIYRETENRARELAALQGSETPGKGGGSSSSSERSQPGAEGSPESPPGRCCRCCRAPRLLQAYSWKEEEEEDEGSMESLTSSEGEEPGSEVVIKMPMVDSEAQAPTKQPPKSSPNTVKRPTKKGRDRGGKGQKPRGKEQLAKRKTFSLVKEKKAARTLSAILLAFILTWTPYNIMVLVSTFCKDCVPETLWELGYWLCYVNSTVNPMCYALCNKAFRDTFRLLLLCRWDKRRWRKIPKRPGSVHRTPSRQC
UniProt P10980, whole entry: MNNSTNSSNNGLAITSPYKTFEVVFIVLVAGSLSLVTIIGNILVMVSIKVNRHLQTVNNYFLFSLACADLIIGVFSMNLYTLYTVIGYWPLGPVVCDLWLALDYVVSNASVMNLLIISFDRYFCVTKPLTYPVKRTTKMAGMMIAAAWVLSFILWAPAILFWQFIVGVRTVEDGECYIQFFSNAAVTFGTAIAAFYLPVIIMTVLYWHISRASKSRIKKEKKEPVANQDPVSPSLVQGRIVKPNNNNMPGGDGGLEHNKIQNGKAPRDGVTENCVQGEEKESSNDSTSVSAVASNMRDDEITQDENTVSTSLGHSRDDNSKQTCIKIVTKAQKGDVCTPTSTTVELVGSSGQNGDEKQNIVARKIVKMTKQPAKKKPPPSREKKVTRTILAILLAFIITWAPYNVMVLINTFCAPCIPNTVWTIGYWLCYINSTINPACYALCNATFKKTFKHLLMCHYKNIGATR
UniProt P08483, whole entry: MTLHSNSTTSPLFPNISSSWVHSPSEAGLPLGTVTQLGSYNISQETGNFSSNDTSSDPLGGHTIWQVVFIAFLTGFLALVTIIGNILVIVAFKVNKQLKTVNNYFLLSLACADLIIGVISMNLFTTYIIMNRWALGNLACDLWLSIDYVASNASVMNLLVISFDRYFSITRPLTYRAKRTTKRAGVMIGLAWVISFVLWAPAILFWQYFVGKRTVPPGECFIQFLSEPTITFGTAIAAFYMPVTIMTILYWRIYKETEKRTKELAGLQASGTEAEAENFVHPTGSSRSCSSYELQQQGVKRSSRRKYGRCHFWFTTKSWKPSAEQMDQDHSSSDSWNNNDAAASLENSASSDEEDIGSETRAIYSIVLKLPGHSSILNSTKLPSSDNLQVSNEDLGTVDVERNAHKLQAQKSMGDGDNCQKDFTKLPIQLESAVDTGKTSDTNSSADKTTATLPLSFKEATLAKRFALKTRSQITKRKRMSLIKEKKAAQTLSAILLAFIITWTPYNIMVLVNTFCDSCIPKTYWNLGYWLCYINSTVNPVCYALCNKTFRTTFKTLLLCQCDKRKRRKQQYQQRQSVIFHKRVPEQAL

Key:
M1 receptor = target: T1, M1 receptor (Rattus norvegicus, UniProt P08482); test: Antagonism to M1 receptor in vivo: McNeil-A-343-induced vasopressor reaction in cervical vertebrae-separated rats; conditions: i.v., McNeil-A-343 (0.3 mg/kg) 5 minutes after test compound
T1 construct: from tissue; host or cells: whole animal, male SD rats (in vivo)
Procedure: Male SD strain rats (weighing 300-500 g) were anesthetized with intraperitoneal administration of pentobarbital (50 mg/kg). Each rat's airway was cannulated by laryngotomy. Also by femoral incision, femoral artery and vein were isolated each and cannulated, which were used as routes for heart rate counting and chemical administration, respectively. Using a pulmotor for small animals (Type 7025, Ugo Basile Co.), artificial respiration was conducted under the conditions of ventilation rate of 6 ml/kg per breath and respiration rate of 90 breaths/min. The heart rate and blood pressure variations were measured with a heart rate counter (AT-601 G, Nippon Koden Co.) and a tonometer (AP-641G, Nippon Koden Co.), via a pressure transducer (DX-312, Nippon Koden Co.). After the blood pressure was stabilized, the cervical vertebrae was separated with an injection needle pricked from the occipital region. Afterthe average blood pressure dropped to not higher than 70 mmHg, test compound (test compound-treated group) or isotonic sodium chloride solution (control group) was intravenously administered. Five (5) minutes thereafter, McNeil-A-343 (0.3 mg/kg) was intravenously administered, and whereby induced hypertension variation was recorded. […] The inhibitory effect (inhibition ratio) of the test compound on the McNeil-A-343-induced vasopressor reaction was determined by the following equation: […]

M2 receptor = target: T2, M2 receptor (Rattus norvegicus, UniProt P10980); test: Antagonism to M2 receptor in vivo: acetylcholine-induced bradycardia reaction in rats; conditions: i.v., acetylcholine (10 μg/kg) 5 minutes after test compound
T2 construct: from tissue; host or cells: whole animal, male SD rats (in vivo)
Procedure: Male SD strain rats (weighing 300-500 g) were anesthetized with urethane (1 g/kg) and α-chloralose (50 mg/kg) administered intraperitoneally. The airway, carotid artery and vein of each rat were isolated by laryngotomy and cannulated. The carotid artery and vein cannulae were made the routes for heart rate counting and drug administration. After suppressing the rats' spontaneous respiration by hypodermic administration of succinylcholine (5 mg/body), artificial ventilation was conducted under the conditions of ventilation rate of 6 ml/kg per breath and respiration rate of 90 breaths/min., using a pulmotor for small animals (Model 681, Harvard Co.). The variations in heart rate and blood pressure were measured with a heart rate counter (AP-601G, Nippon Koden Co.) and a tonometer (AP-641G, Nippon Koden Co.), via a pressure transducer (DX-312, Nippon Koden Co.). After about 10 minutes' stabilization period, heart rate change was induced by intravenous administration of acetylcholine (10 μg/kg), and the mean value of the change was recorded as the value before the drug administration (pre-value) of the body. […] Five minutes thereafter, acetylcholine was intravenously administered and whereby induced change in the heart rate was recorded. […]
Fifty (50%) inhibition dose (ED50; μg/kg) was calculated from the inhibition ratio of each dose of the tested compound. […]

muscarinic M3 receptor = target: T3, muscarinic M3 receptor (Rattus norvegicus, UniProt P08483); test: Antagonism to muscarinic M3 receptor in vivo: acetylcholine-induced airway resistance-increasing reaction in rats; conditions: i.v., acetylcholine (50 μg/kg) 5 minutes after test compound
T3 construct: from tissue; host or cells: whole animal, male SD rats (in vivo)
Procedure: Male SD strain rats (weighing 300-500 g) were anesthetized with urethane (1 g/kg) and α-chloralose (50 mg/kg) administered intraperitoneally. The airway and carotid artery of each rat were isolated by laryngotomy and cannulated. The carotid artery cannula was used as the test compound administration route. After suppressing spontaneous respiration by hypodermic administration of succinylcholine (5 mg/body), the rats were transferred into Plethysmograph-box (PLYAN, Buxco) and artificially ventilated under the conditions of ventilation rate of 6 ml/kg per breath and respiration rate of 90 breaths/min., using a pulmotor for small animals (Model 681, Harvard Co.). […] After about 10 minutes' stabilization period, the change in airway resistance induced by intravenous administration of acetylcholine (50 μg/kg) was measured twice at 5 minutes' interval. The change in airway resistance induced by the second acetylcholine administration was recorded as the pre-administration of the tested rat (pre-value). […] Five (5) minutes thereafter, acetylcholine was administered and whereby induced airway resistance change was measured. […] The changes in acetylcholine-induced airway resistance-increasing reaction (% of pre-value) caused by the tested compound and isotonic sodium chloride solution were calculated by the following Equation 1: […]

Structure (SMILES): CN1[C@@H]2CC[C@H]1C[C@@H](OC(=O)C(CO)c1ccccc1)C2 (stereo partly drawn) [atoropine, reference compound]
- ED50 vasopressor M1 (M1 receptor): 19 µg/kg
- ED50 bradycardia M2 (M2 receptor): 5.2 µg/kg
- ED50 Airway constriction M3 (muscarinic M3 receptor): 4.3 µg/kg
